Consider 1 compound from US20240150333A1, “TAF1 INHIBITORS” (H. LEE MOFFITT CANCER CENTER AND RESEARCH INSTITUTE, INC., priority 2020, published 2024).

The subject of this assay is A549 lung cancer cells. The experiment in a line: p53 pathway markers by western blot in A549 cells. Format: cell-based, human. (In general: Immunoblotting shows a protein as a band on a membrane.)

Each structure is given as a SMILES string.

Regarding `C[C@@H]1COCCN1c1cc(-c2ccnn2C)c2ccnc(-c3ccn[nH]3)c2n1` [BAY1895344], the “induction of the p53 targets p21 and MDM2” value is given as “no induction”; the p53 levels entry was “minor increase”.
